The results in this text go back to ChEMBL document CHEMBL3243921, “2-Pyrrolidinylideneureas, a new class of central nervous system agents” (J Med Chem, 1978).

The series deals with Mus musculus. Nature of the series: Acute toxicity in po dosed mouse assessed as concentration required to produce 50% loss of righting reflex administered as qd for 4 days measured for 1 min post last dose. The class given is organism-based. The following applies: in vivo.

Consider `CN1C(=O)CN=C(c2ccccc2)c2cc(Cl)ccc21` [DIAZEPAM], for which the PD50 amounted to 485 mg/kg.
